# Article PMC9027337, “Influence of Experimental End Point on the Therapeutic Efficacy of Essential and Additional Antidotes in Organophosphorus Nerve Agent-Intoxicated Mice” (2022)
# Tested on: lethal effects of soman in mice
# Details: LD50 soman 6 h end point/24 h end point; atropine 10 mg/kg, HI-6 25 mg/kg i.m.
smiles,measurement,value
CN1[C@@H]2CC[C@H]1C[C@@H](OC(=O)C(CO)c1ccccc1)C2 (stereo partly shown),Protective Ratio B,1.00
